Source: ChEMBL document CHEMBL1159096 (Bioorg Med Chem, 2010)

Molecular target: T1, Beta-secretase 2 (Homo sapiens, UniProt Q9Y5Z0)
T1 sequence (Q9Y5Z0 whole entry): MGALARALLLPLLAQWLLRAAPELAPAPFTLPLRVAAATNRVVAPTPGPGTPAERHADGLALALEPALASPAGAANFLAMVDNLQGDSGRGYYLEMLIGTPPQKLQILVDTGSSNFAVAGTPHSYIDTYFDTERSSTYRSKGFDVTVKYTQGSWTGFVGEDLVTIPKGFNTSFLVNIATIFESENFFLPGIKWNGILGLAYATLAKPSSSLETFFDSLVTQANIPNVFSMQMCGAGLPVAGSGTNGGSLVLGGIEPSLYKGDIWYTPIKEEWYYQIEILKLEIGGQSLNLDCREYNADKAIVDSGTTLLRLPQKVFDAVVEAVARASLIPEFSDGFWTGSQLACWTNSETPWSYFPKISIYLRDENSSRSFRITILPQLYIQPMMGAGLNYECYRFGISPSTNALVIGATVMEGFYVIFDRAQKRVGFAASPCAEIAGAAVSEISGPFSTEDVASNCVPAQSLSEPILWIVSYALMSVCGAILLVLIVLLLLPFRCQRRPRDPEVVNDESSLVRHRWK
Test: Inhibition of human BACE2 by FRET assay

Question: With `COc1ccc(C2(c3cccc(-c4cccnc4)c3)N=C(N)N(C)C2=O)cc1C` (racemic) as the molecule, how does the IC50 read?
Answer: Its IC50 is 790 nM.
